Results on three molecules are retold here after BindingDB's records for PubMed 7815325 (Duke University, 1995).

Chains of the proteins cited; added tags and fusions are not shown.
UniProt P18841, whole entry: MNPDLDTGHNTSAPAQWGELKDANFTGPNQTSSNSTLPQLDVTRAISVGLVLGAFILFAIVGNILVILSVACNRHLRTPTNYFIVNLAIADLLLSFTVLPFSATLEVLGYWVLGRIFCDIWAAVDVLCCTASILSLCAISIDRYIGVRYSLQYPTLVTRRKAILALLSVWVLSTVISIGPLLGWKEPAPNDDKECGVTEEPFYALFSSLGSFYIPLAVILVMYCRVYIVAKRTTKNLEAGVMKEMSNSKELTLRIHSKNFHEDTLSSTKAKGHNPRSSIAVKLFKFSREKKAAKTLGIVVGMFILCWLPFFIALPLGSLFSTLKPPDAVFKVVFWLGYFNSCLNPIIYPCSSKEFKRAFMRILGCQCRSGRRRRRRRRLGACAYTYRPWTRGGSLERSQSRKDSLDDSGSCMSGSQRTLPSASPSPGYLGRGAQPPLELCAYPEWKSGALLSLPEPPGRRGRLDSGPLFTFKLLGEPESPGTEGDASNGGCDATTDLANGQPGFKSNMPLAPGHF

For experiment [1], the target named is T1, Alpha-1A adrenergic receptor (Rattus norvegicus, UniProt P43140).
T1 sequence (P43140 whole entry): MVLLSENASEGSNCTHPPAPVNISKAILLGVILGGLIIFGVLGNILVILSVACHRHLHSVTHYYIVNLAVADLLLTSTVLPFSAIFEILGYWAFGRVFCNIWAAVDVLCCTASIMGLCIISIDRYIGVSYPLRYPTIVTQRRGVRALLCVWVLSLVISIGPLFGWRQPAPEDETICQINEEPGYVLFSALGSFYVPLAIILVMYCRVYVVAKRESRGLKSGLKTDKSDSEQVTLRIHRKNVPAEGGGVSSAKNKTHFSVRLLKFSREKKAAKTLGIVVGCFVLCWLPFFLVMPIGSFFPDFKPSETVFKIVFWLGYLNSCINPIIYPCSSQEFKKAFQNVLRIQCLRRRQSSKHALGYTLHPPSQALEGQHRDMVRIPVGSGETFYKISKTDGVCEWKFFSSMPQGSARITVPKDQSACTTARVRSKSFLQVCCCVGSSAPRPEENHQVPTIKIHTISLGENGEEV

For experiment [2], the target named is T2, Alpha-1A adrenergic receptor (Bos taurus, UniProt P18130).
T2 sequence (P18130 whole entry): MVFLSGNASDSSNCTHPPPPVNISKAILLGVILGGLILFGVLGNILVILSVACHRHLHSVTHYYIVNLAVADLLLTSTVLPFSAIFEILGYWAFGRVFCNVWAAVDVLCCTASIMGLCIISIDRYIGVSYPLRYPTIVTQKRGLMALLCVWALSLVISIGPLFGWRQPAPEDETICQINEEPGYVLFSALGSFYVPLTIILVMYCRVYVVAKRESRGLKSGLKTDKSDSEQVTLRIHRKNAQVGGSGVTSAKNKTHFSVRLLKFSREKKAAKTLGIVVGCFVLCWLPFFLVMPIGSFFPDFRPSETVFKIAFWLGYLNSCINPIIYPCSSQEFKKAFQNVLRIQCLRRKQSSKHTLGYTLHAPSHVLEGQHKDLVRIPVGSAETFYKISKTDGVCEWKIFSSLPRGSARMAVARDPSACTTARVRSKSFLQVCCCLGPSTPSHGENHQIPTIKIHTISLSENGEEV

Experiment [3] has as its target Alpha-1B adrenergic receptor (Cricetidae sp., UniProt P18841).

Take `COc1cc2nc(N3CCN(C(=O)C4CCCO4)CC3)nc(N)c2cc1OC` (stereo not given) [6,7-dimethoxy-2-[4-(tetrahydrofuran-2-ylcarbonyl)piperazin-1-yl]quinazolin-4-amine]: the Ki in experiment [1] stood at 0.00501 µM.

On to `CNCC(O)c1ccc(O)c(O)c1` (stereo not given) [EPINEPHRINE], for which the results for the inhibition constant (Ki) in experiment [1] and in experiment [2] were 0.251 µM and 7.94 µM, respectively.

For the molecule `O=C(CCCN1CCC2(CC1)C(=O)NCN2c1ccccc1)c1ccc(F)cc1` [8-[4-(4-fluorophenyl)-4-oxidanylidene-butyl]-1-phenyl-1,3,8-triazaspiro[4.5]decan-4-one], the Ki in experiment [1] was 0.0398 µM; in experiment [3] it was 0.0316 µM.

What is called Ki is the equilibrium dissociation constant of an inhibitor or competing ligand from its target. A high value points to weaker binding.
